Source: patent US8648092B2, “Imidazo[1,2-a]pyridine derivatives: preparation and pharmaceutical applications” (MEI Pharma, priority 2005, dated 2014)

By UniProt entry, the sequences of proteins in these tests, tags left out.
UniProt Q13547, whole entry: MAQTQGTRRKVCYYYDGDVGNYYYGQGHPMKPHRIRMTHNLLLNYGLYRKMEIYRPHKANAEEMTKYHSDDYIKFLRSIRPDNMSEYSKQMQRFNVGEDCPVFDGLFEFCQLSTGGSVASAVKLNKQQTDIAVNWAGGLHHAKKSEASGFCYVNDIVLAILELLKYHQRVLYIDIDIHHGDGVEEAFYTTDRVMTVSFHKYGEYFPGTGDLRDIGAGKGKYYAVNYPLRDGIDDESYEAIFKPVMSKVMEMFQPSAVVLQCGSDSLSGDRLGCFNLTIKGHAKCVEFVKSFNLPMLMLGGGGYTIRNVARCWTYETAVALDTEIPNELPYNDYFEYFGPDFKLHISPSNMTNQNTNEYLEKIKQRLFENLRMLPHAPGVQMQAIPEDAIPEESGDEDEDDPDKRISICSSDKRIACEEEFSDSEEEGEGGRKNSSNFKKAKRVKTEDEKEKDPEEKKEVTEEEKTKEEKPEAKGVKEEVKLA

Experiments:
Colo205 cells = experiment: Cell-based proliferation assay for determination of GI50 values (CyQUANT); conditions: read-out: GI50 (Colo205), 96 h treatment
[1] = molecular target: HDAC1 enzyme (recombinant GST-HDAC1) (Homo sapiens (Human), UniProt Q13547); experiment: In vitro HDAC assay for determination of IC50 values (BIOMOL fluorescent-based HDAC activity assay); conditions: read-out: IC50 (HDAC 1), Flur de lys substrate, 2 h room temperature

CCN(CC)CCc1c(-c2ccccc2)nc2cc(/C=C/C(=O)NO)ccn12
GI50 (Colo205 cells): 1600 nM
IC50 [1]: 260 nM
